Measured values as given in US5985916A, “Polymer-platinum compounds” (Access Pharmaceuticals, Inc., priority 1998, dated 1999).

How the values were obtained:
[1] = o-phenylenediamine colorimetric assay
[2] = for Pt Loading, AAS: Atomic absorption spectroscopy; for platinum content: analysis method not given

Substance | Pt Loading, o-PDA [1] | Pt Loading, AAS [2] | platinum content [2]
poly(bisacrylamido-acetoxy-aminoCy.dex-piperazinyl) [PACP-cyc] | 60 % wt | 56 % wt | 50-60 wt %
poly(bisacrylamido-acetoxy-piperazinyl) [PACP] | 15 % wt | 10 % wt | –
poly[(bisacryloyl piperazine)-β-aminocyclodextrin-piperazinyl] [PAP-cyc] | 69 % wt | 53 % wt | 50-60 wt %
